The text below walks through data of US5686424A, “2-oxoethyl derivatives as immunosuppressants” (Miles Inc., priority 1995, dated 1997).

Amino acid sequences for entries named in this document (tags omitted).
UniProt P62942, whole entry: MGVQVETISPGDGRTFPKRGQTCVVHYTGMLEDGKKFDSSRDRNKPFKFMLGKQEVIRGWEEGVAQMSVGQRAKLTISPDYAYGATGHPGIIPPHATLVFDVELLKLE

What is called IC50 is the concentration needed to halve the response being measured.

The target in this assay is FKBP (Homo sapiens, UniProt P62942). As to the kind of experiment: PPIase Inhibition Assay. The format is biochemical. As for the experimental part: 1) Inhibition of PPIase Activity
This assay follows in principle the procedure described in Kofron et al., 1991, Biochemistry 30:6127.
The three main reagents used are PPIase, a substrate for PPIase, and a selected inhibitor compound of the present invention. The basic principle behind this assay is the conversion of the cis isomer of the substrate to the trans form, which conversion is catalyzed by PPIase. Essentially, inhibition of this PPIase activity is measured for the selected compounds. A peptide chymotrypsin substrate containing a proline in the P2 position is only cleaved by chymotrypsin when the Phe-Pro bond is in the trans isomeric configuration. […]
The cis peptide will spontaneously convert to the trans isomer at a slow rate. […] After isomerization, the peptide is cleaved by chymotrypsin releasing p-nitroaniline which can be monitored at 390 nm. The rate of release is then calculated using a first order rate plus offset equation utilizing the ENZFITTER program (Leatherbarrow, BIOSOFT, Cambridge, United Kingdom). […]
The absorbance at 390 nm versus time is monitored for 90 sec using a Beckman DU70 spectrophotometer. The absorbance versus time data files are transferred to an IBM XT computer and the rate constants determined using the commercial enzfitter program. For each set of data, the uncatalyzed rate of conversion is measured and the uninhibited enzymatic rate determined. […]

In the case of “L-Isoleuclne, N-[1-(2-(1-Methyl-Cyclohexyl)-2-Oxoethyl)-L-Prolyl] Benzylamide [Example 44]”, the IC50 was under 5 µM.
